These are literature values, as cited in publication PMC5306082, “Physiologically based kinetic modeling of the bioactivation of myristicin” (Archives of Toxicology, 2016).

Read-outs that look alike come from different tables or passages of the source.

In data set [1] the test system is male rats. The note with it: ref National Toxicology [2000], cited from earlier work.
The test system of data set [2] is freshly isolated rat hepatocytes in primary culture. The note with it: 10^−6 to 10^−3 M; ref Howes et al. [1990]; cited from earlier work.
Data set [3] concerns rats or mice. The note with it: chronic oral exposure to high doses, or male CD-1 mice preweaning; ref Borchert et al. [1973]; Drinkwater et al. [1976]; National Toxicology [2000]; cited from earlier work.

As to `C=CCc1ccc(OC)c(OC)c1` [methyleugenol], the liver tumor frequency in data set [1] (37 mg methyleugenol/kg bw per day) is on record as 3/50; in data set [1] (75 mg methyleugenol/kg bw per day), 14/50; in data set [1] (150 mg methyleugenol/kg bw per day), 25/50. The cytotoxicity entry in data set [2] is “cytotoxicity”. Further, the “induction of hepatic tumors” value in data set [3] is on record as “induce hepatic tumors”.
